Drawing on ChEMBL document CHEMBL3243975 (J Med Chem, 1978), this text covers Ke for 1 compound.

The species named for the assay is Sus scrofa. Put plainly: Binding affinity to pig ileum opioid receptor. The format is tissue-based.

The compound `C=CCN1CC[C@]23c4c5ccc(O)c4O[C@H]2[C@@H](O)C=C[C@H]3[C@H]1C5` [NALORPHINE] came in with a Ke of 4.47 nM.
